The data set in a line: Effect of pH on pramlintide solubility in DMSO. It counts as physicochemical. How it is done:
Pramlintide acetate was dissolved in H2O at 2 mg/mL with either a 10 mM citrate buffer, pH 4 or 10 mM phosphate buffer, pH 7. These solutions were lyophilized to dryness ([…]) using a conservative cycle and reconstituted to various nominal concentrations in DMSO. Solubility was measured by visual inspection for clarity and turbidity via A630.

Take `CC[C@H](C)[C@H](NC(=O)[C@@H]1CCCN1C(=O)CNC(=O)[C@H](Cc1ccccc1)NC(=O)[C@H](CC(N)=O)NC(=O)[C@H](CC(N)=O)NC(=O)[C@H](CO)NC(=O)[C@H](CO)NC(=O)[C@H](Cc1c[nH]cn1)NC(=O)[C@@H](NC(=O)[C@H](CC(C)C)NC(=O)[C@H](Cc1ccccc1)NC(=O)[C@H](CC(N)=O)NC(=O)[C@H](C)NC(=O)[C@H](CC(C)C)NC(=O)[C@H](CCCNC(=N)N)NC(=O)[C@H](CCC(N)=O)NC(=O)[C@@H](NC(=O)[C@H](C)NC(=O)[C@@H]1CSSC[C@H](NC(=O)[C@@H](N)CCCCN)C(=O)N[C@@H](CC(N)=O)C(=O)N[C@@H]([C@@H](C)O)C(=O)N[C@@H](C)C(=O)N[C@@H]([C@@H](C)O)C(=O)N1)[C@@H](C)O)C(C)C)C(=O)N[C@@H](CC(C)C)C(=O)N1CCC[C@H]1C(=O)N1CCC[C@H]1C(=O)N[C@H](C(=O)N[C@@H](CC(N)=O)C(=O)N[C@H](C(=O)NCC(=O)N[C@@H](CO)C(=O)N[C@@H](CC(N)=O)C(=O)N[C@H](C(=O)N[C@@H](Cc1ccc(O)cc1)C(N)=O)[C@@H](C)O)C(C)C)[C@@H](C)O` [pramlintide, Pramlintide acetate]: the “solubility in DMSO” value was “soluble” (pH memory of 4, low concentration) and “At no concentration” (pH memory of 7).

For the origin of these results see patent publication US9295724B2, “Stable formulations for parenteral injection of peptide drugs” (Xeris Pharmaceuticals, Inc., priority 2011, dated 2016).
